Binding of CDR-mutated scFvs to a peptide of the spike HR2 region

Values reported by Engelhart et al. 2022, doi:10.1038/s41597-022-01779-4 (FLAb copy).

The target is the same throughout: PDVDLGDISGINAS, from the HR2 region of SARS-CoV-2 spike.

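Phage display of a naive human antibody library on the peptide gave the parent. Variants in AAYL51 differ from the parent at up to three CDR positions; double and triple changes were sampled at random. The scFvs were displayed on barcoded MATa yeast, the peptide on MATalpha yeast. After mating in shaken culture at 30 °C for 16 h, diploids were selected and their barcode pairs sequenced. A regression on co-assayed BCL2-family reference pairs converts the normalised counts of each replicate to an apparent Kd. The assay was run in three technical replicates.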

Each scFv is VL, a (GGGGS)3 linker, VH, as in the parent Ab-91, and differs from it in the CDRs of the heavy chain only.
VL: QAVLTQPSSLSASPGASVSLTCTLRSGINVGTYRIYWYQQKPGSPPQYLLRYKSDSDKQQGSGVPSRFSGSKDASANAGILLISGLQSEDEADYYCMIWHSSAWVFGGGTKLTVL
VH: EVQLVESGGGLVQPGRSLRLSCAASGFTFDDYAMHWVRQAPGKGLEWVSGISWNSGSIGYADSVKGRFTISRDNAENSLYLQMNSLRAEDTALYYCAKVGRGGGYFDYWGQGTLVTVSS

Changes read parent residue, position, new residue, counted from the first residue of the VH shown.
All variants listed here change V64 of the VH, counted from its first residue.
Each Kd is an estimate from the mating assay, the geometric mean of the replicates in which the pair was seen; lower is stronger.
"nd" marks a missing value. The strain was present, yet no cells mated with the target were sequenced in any replicate, which points to weak or no binding.

The variant S55W A61H V64Y showed nd (0 of 3 replicates).
The variant G59T V64H G102D showed 10 µM (1 of 3 replicates).
The variant D31W Y32F V64F showed nd (0 of 3 replicates).
The variant G59E V64G G100I showed 30 µM (2 of 3 replicates).
The variant G50C W53S V64K showed nd (0 of 3 replicates).
The variant D31L I51P V64N showed nd (0 of 3 replicates).
The variant G56A V64C showed 28 nM (3 of 3 replicates).
The variant D30W W53M V64D showed nd (0 of 3 replicates).
The variant S55R S57Y V64D showed 14 µM (2 of 3 replicates).
The variant D31T V64R showed 250 µM (3 of 3 replicates).
The variant F29S V64T F106K showed 9.2 µM (1 of 3 replicates).
The variant V64E K65N showed nd (0 of 3 replicates).
The variant D30S V64I showed 37 nM (3 of 3 replicates).
The variant D30C V64S V99T showed 200 µM (3 of 3 replicates).
The variant G26P D62M V64P showed nd (0 of 3 replicates).
The variant D30R D62R V64E showed nd (0 of 3 replicates).
The variant V64L R101S Y108I showed 18 nM (3 of 3 replicates).
The variant W53M S55V V64R showed 220 µM (3 of 3 replicates).
The variant S52M I58Y V64G showed 87 µM (2 of 3 replicates).
The variant I51P D62P V64C showed nd (0 of 3 replicates).
The variant Y60H V64S K65E showed 95 µM (1 of 3 replicates).
The variant G50M G56H V64A showed 9.9 µM (1 of 3 replicates).
The variant M34G S55W V64Q showed nd (0 of 3 replicates).
The variant M34N V64K G104E showed 330 µM (3 of 3 replicates).
The variant G59Q V64L G103K showed 24 µM (1 of 3 replicates).
The variant I51S S63K V64P showed 100 µM (3 of 3 replicates).
The variant D31G Y32E V64M showed 5.5 µM (1 of 3 replicates).
The variant G56I V64C Y105P showed 59 µM (1 of 3 replicates).
The variant M34F S57M V64E showed nd (0 of 3 replicates).
The variant V64Y G100R G103T showed 220 µM (3 of 3 replicates).
The variant F27W V64D G100K showed 25 µM (1 of 3 replicates).
The variant I58E V64E G100T showed 180 µM (1 of 3 replicates).
The variant T28I A61E V64G showed nd (0 of 3 replicates).
The variant S57T V64N V99I showed nd (0 of 3 replicates).
The variant D30F V64F Y105K showed 590 nM (3 of 3 replicates).
The variant H35S G50R V64Q showed nd (0 of 3 replicates).
The variant W53Y S57M V64T showed nd (0 of 3 replicates).
The variant M34D G50E V64H showed nd (0 of 3 replicates).
The variant T28G V64F K65W showed 2.1 µM (3 of 3 replicates).
The variant V64L V99S G104T showed 160 µM (1 of 3 replicates).
The variant S57V V64H K65W showed nd (0 of 3 replicates).
The variant V64L showed nd (0 of 3 replicates).
The variant D31I M34K V64L showed nd (0 of 3 replicates).
The variant V64W R101C F106K showed nd (0 of 3 replicates).
The variant S52I V64I Y105H showed nd (0 of 3 replicates).
The variant N54T V64R showed nd (0 of 3 replicates).
The variant Y60A V64T G102S showed nd (0 of 3 replicates).
The variant F29P V64N F106H showed 400 µM (2 of 3 replicates).
The variant D62M V64F D107I showed 2.7 µM (3 of 3 replicates).

The 5 strongest on average among those seen in every replicate, once more:

changes	apparent Kd	detected
V64L R101S Y108I	18 nM	3 of 3
G56A V64C	28 nM	3 of 3
D30S V64I	37 nM	3 of 3
D30F V64F Y105K	590 nM	3 of 3
T28G V64F K65W	2.1 µM	3 of 3

Empty control strains, which show no peptide, gave a signal in 21% of pairings with library AAYL51; the median was 34 µM and 95% of these signals were weaker than 1.8 µM. No background was subtracted.